# Entries after “also recorded” stand apart in the source; their conditions may differ.
# Tests used:
# [1] = test system: lipid loaded HepaRG and HepG2 cells; assay: Lipid droplet clearance in lipid-loaded liver cells (LipitoxGreen, flow cytometry); format: cell-based, human
# Description: Mice deficient in components necessary to form lipid droplets are resistant to fatty liver and obesity on high fat diets and also show increased lipolysis. The in vitro models of lipid droplet metabolism involve ‘lipid loading” cells with a mixture of fatty acids to establish a lipid loading capacity, and subsequent compound treatment to determine the rate of lipid clearance. We utilized this well-established assay using lipid loaded HepaRG (Life Technologies) and HepG2 cells to determine compound effects by staining neutral lipid droplets with HCS LipitoxGreen (Life Technologies) and quantitation using flow cytometry. Briefly, cells are loaded with 1:1 Oleate/Palmitate fatty acid-BSA conjugate for 24 hours in media; subsequently, cells are treated with compound for an additional 24 hours and then remaining lipid content is evaluated by flow cytometry relative to the ‘not loaded” positive control.
# [2] = test system: FGF21 and Car3 expression; assay: Bioassay panel: FGF21 stimulation, CAR3 suppression, stimulation of lipolysis in liver cell lines and primary hepatocytes; format: cell-based
# Description: Having discovered pronounced differences in FGF21 and Car3 expression in entire cohorts of treated animals (FIG. 3A western blot), we developed cell-based bioassays that recapitulated the in vivo effects. The three bioassays for use in this study are: qPCR quantitation of FGF21 levels in HepG2 cells (FIG. 3B—left), qPCR quantification of Car3 in primary rat hepatocytes (FIG. 3B-right) and lipid droplet clearance in HepaRG cells (FIG. 3C).
# Once these bioassays were developed, we explored the effect of B127443 and 70 structural analogs on these endpoints with positive outcomes passing to in vivo screening in an iterative process. We have found these compounds to be predictive/correlative of in vivo efficacy with adequate bioavailability. The qPCR assay confirmed that FGF21 gene expression increases in both liver and HepG2 cells confirming that HepG2s are a reliable in vitro model for FGF21 SAR development of B127443 analogs. […] The effect of these 5 selected compounds on FGF21 expression levels is shown in FIG. 1/SAR table above with R-group substitutions indicated. Our current set of lead molecules has importantly eliminated the undesirable aryl nitro-group through bioisostere substitutions, while improving both in vitro and in vivo efficacy, thereby avoiding potential aryl nitro-group toxicity.
smiles,measurement,setting,value
"O=C(Nc1ccc([N+](=O)[O-])cc1Cl)c1cc(Cl)ccc1O [Example B-127443, Niclosamide]",lipolysis in lipid-loaded liver cells,[1]; 100 nM,stimulates lipolysis
same,lipid content of lipid-loaded cells,"[1]; 24 hours Oleate/Palmitate loading, then 24 hours compound, compared to untreated controls",significantly reduced lipid content; also recorded: reverses lipid-loaded cells to a normal lipid phenotype
same,"potency/activity in bioassays (FGF21 stimulation, CAR3 suppression, lipolysis)",[2],most potent small molecule

# Source: patent US10005720B2, “Compounds useful for the treatment of metabolic disorders and synthesis of the same” (NORTH CAROLINA CENTRAL UNIVERSITY, priority 2013, dated 2018)
